# Earlier results in PMC11516055, “From Static to Dynamic Structures: Improving Binding Affinity Prediction with Graph‐Based Deep Learning” (Advanced Science, 2024).
# Target: PTP1B (protein tyrosine phosphatase 1B)
# Settings: experimental value, thiophene scaffold ligands; cited from earlier work
row,Compound,pKi
1,CC1(C)CC(Nc2cccc(-c3sc(C(=O)O)c(OCC(=O)O)c3Br)c2)CC(C)(C)C1 [2qbq],7.4
2,O=C(O)COc1c(C(=O)O)sc(-c2cccc(NCc3ccccc3)c2)c1Br [2qbr],6.3
3,O=C(O)COc1c(C(=O)O)sc(-c2cccc(NC3CCN(S(=O)(=O)Cc4ccccc4)CC3)c2)c1Br [2qbp],8.4
